Reference: paper PMC6608569 (Bioorganic & medicinal chemistry letters, 2019)

Test system: HCT116 cells
Assay: Autophagy markers
Type: cell-based
Conditions: 2, 10, and 50 μM, 16 hours, immunoblot

Oc1c(Cl)cc(Cl)c(Cl)c1Cc1c(O)c(Cl)cc(Cl)c1Cl [hexachlorophene]
levels of autophagy markers p62, LC3-I, LC3-II relative to DMSO: decreased the levels of p62 and LC3-I while increasing the levels of LC3-II
